## Binding of CDR-mutated scFvs to a peptide of the spike HR2 region

Reference: Engelhart et al. 2022, doi:10.1038/s41597-022-01779-4. File: FLAb, binding data.

Target: peptide PDVDLGDISGINAS, taken from heptad repeat 2 (HR2) of SARS-CoV-2 spike.

Parent: Ab-91, a human scFv built as VL, a (GGGGS)3 linker, VH. Only the CDRs of the heavy chain vary.
VL: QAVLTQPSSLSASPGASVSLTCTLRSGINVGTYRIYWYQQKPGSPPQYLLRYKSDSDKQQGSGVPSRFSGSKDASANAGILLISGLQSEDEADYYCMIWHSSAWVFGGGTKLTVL
VH: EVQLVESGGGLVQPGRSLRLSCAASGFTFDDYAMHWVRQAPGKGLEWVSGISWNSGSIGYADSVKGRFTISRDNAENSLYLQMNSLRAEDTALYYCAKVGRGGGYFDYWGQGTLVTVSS

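The parent was found by panning a naive human phage display library on the peptide. In library AAYL51, one, two or three CDR residues were substituted; doubles and triples were drawn at random. Affinity was read by AlphaSeq, a pooled yeast mating assay with surface-displayed partners. After mating in shaken culture at 30 °C for 16 h, diploids were selected and their barcode pairs sequenced. The ratio of observed to expected reads was calibrated, replicate by replicate, on BCL2-family standards whose Kd was known from biolayer interferometry. The assay was run in three technical replicates.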

Sequences are complete VH domains.
Numbers give log10(Kd / nM), so 0 is 1 nM and 3 is 1 µM. Smaller is tighter.
Where no diploid with the target was found in that replicate, the entry reads "ND": below detection, most likely a poor binder, though not proof of it.
In this assay the parent's reference entry averaged 1.86; its copy inside this library read 0.88.
Empty control strains, which show no peptide, gave a signal in 21% of pairings with library AAYL51; the median was 4.54 and 95% of these signals were weaker than 3.26. No background was subtracted. For each scFv, signals with the empty controls are counted beside the result, with their mean in brackets.

VH	log10 Kd, replicates	control signals
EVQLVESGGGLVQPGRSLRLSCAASGFTFDDYAMMWVRQAPGKGLEWVSGIAWNSGSIGYMDSVKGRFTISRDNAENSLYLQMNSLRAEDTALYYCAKVGRGGGYFDYWGQGTLVTVSS	5.48 / ND / ND	0/9
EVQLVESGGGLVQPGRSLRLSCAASGFTFDDWAMVWVRQAPGKGLEWVSGISWNSDSIGYADSVKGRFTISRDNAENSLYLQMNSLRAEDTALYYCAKVGRGGGYFDYWGQGTLVTVSS	ND / ND / ND	2/9 (4.13)
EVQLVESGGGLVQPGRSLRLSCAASGFTFDDYAMHWVRQAPGKGLEWVSGISQNSGCIGYADSVKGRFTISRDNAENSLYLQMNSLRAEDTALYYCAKVGRGGGYFDAWGQGTLVTVSS	2.61 / 2.79 / 2.85	4/9 (4.77)
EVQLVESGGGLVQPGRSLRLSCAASNFTFDWYPMHWVRQAPGKGLEWVSGISWNSGSIGYADSVKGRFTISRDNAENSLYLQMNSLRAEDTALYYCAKVGRGGGYFDYWGQGTLVTVSS	ND / ND / ND	0/9
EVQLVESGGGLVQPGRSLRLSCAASGFTFSDYAMHWVRQAPGKGLEWVSGISWNSGSIGYADSVKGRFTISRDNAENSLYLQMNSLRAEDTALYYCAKVGRWGGYFRYWGQGTLVTVSS	4.26 / 4.65 / ND	3/9 (4.31)
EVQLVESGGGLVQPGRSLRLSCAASGFTFDDYAMHWVRQAPGKGLEWVSGISTNSQSIGYADSMKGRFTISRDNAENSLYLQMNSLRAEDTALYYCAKVGRGGGYFDYWGQGTLVTVSS	2.10 / 2.16 / 2.09	3/9 (4.04)
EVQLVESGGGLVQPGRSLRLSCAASGFTYDDYAMHWVRQAPGKGLEWVSGISWNSGSIRYADSYKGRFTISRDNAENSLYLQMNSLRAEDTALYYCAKVGRGGGYFDYWGQGTLVTVSS	ND / ND / ND	0/9
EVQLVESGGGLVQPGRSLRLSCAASGFTFDDYAMHWVRQAPGKGLEWVSGIHWNSGSIGSADSVKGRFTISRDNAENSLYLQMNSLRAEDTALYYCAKVNRGGGYFDYWGQGTLVTVSS	ND / ND / ND	2/9 (4.85)
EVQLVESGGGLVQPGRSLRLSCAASGATFDDYAMHWVRQAPGKGLEWVSGRNWNSGSIGYADSVKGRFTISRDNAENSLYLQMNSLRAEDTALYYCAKVGRGGGYFDYWGQGTLVTVSS	ND / ND / ND	0/9
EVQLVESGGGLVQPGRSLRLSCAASGFTFDDTAMHWVRQAPGKGLEWVSGISWNSGSIGYADSVKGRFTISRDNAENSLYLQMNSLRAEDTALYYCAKWGRGGGYFMYWGQGTLVTVSS	2.22 / 2.39 / 1.99	1/9 (3.68)
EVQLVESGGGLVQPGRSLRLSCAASWFTFDDYAMHWVRQAPGKGLEWVSGISWNSGSIGYADPVKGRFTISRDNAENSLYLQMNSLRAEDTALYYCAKVGRGGGYGDYWGQGTLVTVSS	4.01 / ND / ND	3/9 (4.70)
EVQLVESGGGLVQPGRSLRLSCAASGFTFVDVAMHWVRQAPGKGLEWVSGISWNSGSIGYADSIKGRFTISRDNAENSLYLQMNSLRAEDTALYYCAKVGRGGGYFDYWGQGTLVTVSS	0.59 / 0.60 / 0.48	2/9 (3.09)
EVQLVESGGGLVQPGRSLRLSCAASFFTYDDYAMHWVRQAPGKGLEWVSGASWNSGSIGYADSVKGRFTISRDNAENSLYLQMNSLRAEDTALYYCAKVGRGGGYFDYWGQGTLVTVSS	5.37 / ND / 5.20	3/9 (4.93)
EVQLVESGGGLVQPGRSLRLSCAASGFTFQDYAMHWVRQAPGKGLEWVSGISWNWGSIGYARSVKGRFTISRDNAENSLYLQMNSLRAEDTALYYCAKVGRGGGYFDYWGQGTLVTVSS	ND / 4.61 / ND	0/9
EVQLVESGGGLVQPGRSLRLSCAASWFTFDDYHMHWVRQAPGKGLEWVSGISWNSGSIGYADSVKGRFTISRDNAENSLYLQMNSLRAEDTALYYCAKVGRGGFYFDYWGQGTLVTVSS	ND / ND / ND	5/9 (4.70)
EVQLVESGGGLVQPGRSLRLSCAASGSTFDDYAMHWVRQAPGKGLEWVSGISWNSGSIGYADSVAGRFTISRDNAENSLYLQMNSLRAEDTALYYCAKVGRGGGYFDRWGQGTLVTVSS	4.28 / 3.18 / ND	0/9
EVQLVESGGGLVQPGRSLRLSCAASGFTFDDYAYHWVRQAPGKGLEWVSGMSWNSGGIGYADSVKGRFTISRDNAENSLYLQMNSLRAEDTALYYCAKVGRGGGYFDYWGQGTLVTVSS	5.32 / 4.75 / ND	6/9 (4.41)
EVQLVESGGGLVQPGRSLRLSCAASGFTFDDYAMHWVRQAPGKGLEWVSGISWNSGSIGYAQSVKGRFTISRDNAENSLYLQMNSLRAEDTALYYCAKTGRGGGYVDYWGQGTLVTVSS	ND / ND / ND	1/9 (4.23)
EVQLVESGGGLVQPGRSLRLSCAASGKTFDDYADHWVRQAPGKGLEWVSGISWNSGSIGYASSVKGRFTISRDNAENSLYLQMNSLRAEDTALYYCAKVGRGGGYFDYWGQGTLVTVSS	3.95 / ND / ND	0/9
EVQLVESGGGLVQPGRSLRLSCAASGFTFDDYAMHWVRQAPGKGLEWVSGISWNWSSIGFADSVKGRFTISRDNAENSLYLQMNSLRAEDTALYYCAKVGRGGGYFDYWGQGTLVTVSS	ND / ND / ND	0/9
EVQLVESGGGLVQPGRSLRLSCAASGFTFDDYAMHWVRQAPGKGLEWVSGISWDSGSIGYADSVKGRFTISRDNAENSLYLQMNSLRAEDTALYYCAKVGRGGGYFCYWGQGTLVTVSS	4.37 / ND / ND	3/9 (5.52)
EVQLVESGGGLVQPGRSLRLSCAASGFVFDDYAMHWVRQAPGKGLEWVSGISKNSGSIGYADSVKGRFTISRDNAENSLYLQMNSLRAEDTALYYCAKVPRGGGYFDYWGQGTLVTVSS	ND / ND / 4.61	0/9
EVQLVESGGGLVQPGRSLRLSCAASGFTFDDYAMHWVRQAPGKGLEWVSGISWNSGSIGIADSVKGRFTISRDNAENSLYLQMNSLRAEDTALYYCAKVGRYGGYFCYWGQGTLVTVSS	ND / 4.48 / ND	1/9 (4.69)

Again, the first 3 entries without any signal:

VH,"log10 Kd, replicates",control signals
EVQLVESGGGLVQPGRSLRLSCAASGFTFDDWAMVWVRQAPGKGLEWVSGISWNSDSIGYADSVKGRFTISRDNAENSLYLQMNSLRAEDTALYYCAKVGRGGGYFDYWGQGTLVTVSS,ND / ND / ND,2/9 (4.13)
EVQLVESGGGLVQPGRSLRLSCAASNFTFDWYPMHWVRQAPGKGLEWVSGISWNSGSIGYADSVKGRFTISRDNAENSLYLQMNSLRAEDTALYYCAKVGRGGGYFDYWGQGTLVTVSS,ND / ND / ND,0/9
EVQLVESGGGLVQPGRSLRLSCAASGFTYDDYAMHWVRQAPGKGLEWVSGISWNSGSIRYADSYKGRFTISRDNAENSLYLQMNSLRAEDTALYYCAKVGRGGGYFDYWGQGTLVTVSS,ND / ND / ND,0/9